Biological target: human EAA4a receptor (Homo sapiens, UniProt Q13002)
Assay type: cell-based
Parameters: transported to the cell surface in mature form, lacking the signal peptide and consisting of 877 amino acids; expressed in transfected cells; host or cells: Xenopus oocytes (stage V or VI), nuclear injection of pcDNAI/humEAA4a DNA
Protocol: Xenopus oocytes (stage V or VI) were harvested and the nucleus of the oocytes was injected with 5 ng of pcDNAI/humEAA4a DNA.

Chains of the proteins cited; added tags and fusions are not shown. Residues count along the entry.
UniProt Q13002, 32-908: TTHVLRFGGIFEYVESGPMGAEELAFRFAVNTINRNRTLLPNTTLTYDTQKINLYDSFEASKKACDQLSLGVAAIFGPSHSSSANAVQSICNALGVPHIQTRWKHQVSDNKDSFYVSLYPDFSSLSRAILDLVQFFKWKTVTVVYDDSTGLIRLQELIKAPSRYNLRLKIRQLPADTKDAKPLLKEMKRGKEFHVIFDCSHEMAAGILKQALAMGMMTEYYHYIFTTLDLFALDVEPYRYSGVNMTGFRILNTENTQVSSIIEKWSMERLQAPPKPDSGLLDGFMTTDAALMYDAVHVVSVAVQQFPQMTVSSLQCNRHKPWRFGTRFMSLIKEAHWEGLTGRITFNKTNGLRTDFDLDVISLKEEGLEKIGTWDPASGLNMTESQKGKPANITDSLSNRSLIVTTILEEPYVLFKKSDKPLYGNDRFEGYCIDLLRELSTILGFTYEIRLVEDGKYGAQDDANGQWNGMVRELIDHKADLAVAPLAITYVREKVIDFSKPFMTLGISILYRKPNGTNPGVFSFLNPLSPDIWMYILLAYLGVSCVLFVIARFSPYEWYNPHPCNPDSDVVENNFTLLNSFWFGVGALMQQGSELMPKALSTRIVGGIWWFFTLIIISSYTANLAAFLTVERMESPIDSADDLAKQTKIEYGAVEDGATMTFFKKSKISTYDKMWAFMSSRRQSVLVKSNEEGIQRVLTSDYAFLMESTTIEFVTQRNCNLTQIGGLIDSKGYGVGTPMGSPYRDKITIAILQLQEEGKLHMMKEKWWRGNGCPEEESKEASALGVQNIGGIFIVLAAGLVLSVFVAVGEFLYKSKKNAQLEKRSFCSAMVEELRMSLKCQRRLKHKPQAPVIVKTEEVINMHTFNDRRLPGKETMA

`N[C@@H](CCC(=O)O)C(=O)O` [L-glutamate] was tested, and the “current/voltage (I/V) relationship” value was “strongly rectified” and the “desensitization in the continuing presence of agonist” value was “rapidly desensitized”.

— US6376200B1, “Kainate-binding, human CNS receptors of the EAA4 family” (priority 1992, dated 2002)
